scFv variants of Ab-91 (heavy chain) against a SARS-CoV-2 spike peptide

Antigen: PDVDLGDISGINAS, a 14-residue peptide of the SARS-CoV-2 spike HR2 region.

Each scFv is VL, the linker GGGGSGGGGSGGGGS, VH, as in the parent Ab-91, and differs from it in the CDRs of the heavy chain only.
VL: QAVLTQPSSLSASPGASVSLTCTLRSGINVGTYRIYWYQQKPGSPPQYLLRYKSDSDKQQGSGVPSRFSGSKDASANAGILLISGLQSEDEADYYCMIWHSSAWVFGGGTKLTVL
VH: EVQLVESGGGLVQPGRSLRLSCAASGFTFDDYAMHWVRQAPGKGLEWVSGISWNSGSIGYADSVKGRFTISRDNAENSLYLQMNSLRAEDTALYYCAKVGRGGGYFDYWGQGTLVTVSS

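The parent was found by panning a naive human phage display library on the peptide. AAYL51 was designed without a model: most single CDR substitutions and a random sample of double and triple ones. In AlphaSeq, yeast of one mating type display the scFv and yeast of the other type display the target. Mating (16 h, 30 °C) was followed by selection of diploids and sequencing of their barcodes. Each replicate has its own calibration line, from reference interactions of the BCL2 family. Each pool was mated in three replicate cultures.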

Substitutions are numbered in sequence along the VH above, starting at 1 (not Kabat).
All variants listed here change D107 of the VH, counted from its first residue.
Values are log10 of the apparent Kd in nM; lower means stronger binding.
Averages over replicates are reported, and they cover detected replicates only.
A pair that was not seen in that replicate is written "nd"; this usually means weak binding, but a binder can also be missed.

A61Y/G100F/D107L: 4.70, 4.51, nd (mean 4.60).
Y32C/S57A/D107N: nd, nd, nd.
D107P/Y108G: nd, nd, nd.
I51M/G102M/D107Y: 4.16, nd, nd.
W53M/K65N/D107W: 5.27, nd, nd.
A61S/V64R/D107M: 5.21, 4.81, nd (mean 5.01).
G50M/F106T/D107S: nd, nd, nd.
G104W/D107S: 6.26, 4.90, 4.99 (mean 5.38).
G56L/V64K/D107Q: nd, nd, nd.
G59W/S63H/D107Q: 4.34, 4.00, nd (mean 4.17).
M34R/G100K/D107L: 4.71, nd, nd.
S52T/K65N/D107Q: 4.19, 5.44, 4.82 (mean 4.82).
F27N/M34F/D107Y: 5.07, 4.74, nd (mean 4.91).
F27K/D107Y: nd, 5.67, nd.
Y32P/A33G/D107T: nd, 4.21, nd.
F27G/G103H/D107K: nd, nd, nd.
G102W/D107F/Y108N: 4.76, 4.79, 4.94 (mean 4.83).
F106Y/D107R: nd, nd, nd.
F27P/G104A/D107L: 2.78, 3.20, 3.04 (mean 3.01).
S52G/N54P/D107C: nd, nd, nd.
S57I/V64M/D107I: 3.28, 3.91, 3.54 (mean 3.58).
D30Q/S52T/D107W: 3.51, 3.28, 3.78 (mean 3.52).
G56Y/G103I/D107Q: 3.83, 5.30, nd (mean 4.56).
M34V/D62R/D107S: nd, nd, nd.
F29G/D31A/D107S: nd, nd, nd.
D30K/M34C/D107L: 5.25, 5.20, nd (mean 5.22).
H35W/S57H/D107T: 3.11, nd, nd.
M34P/G59E/D107E: 4.34, nd, nd.
K65W/R101A/D107I: nd, nd, nd.
G26C/D30G/D107A: 1.66, 1.33, 0.96 (mean 1.31).
V99K/G102V/D107C: nd, nd, nd.
S57L/Y60G/D107W: 6.06, 6.20, 5.70 (mean 5.99).
S52F/Y60R/D107V: 4.26, 4.98, nd (mean 4.62).
I51H/G103Q/D107N: nd, nd, nd.

The 3 strongest on average among those seen in every replicate, once more:

changes	log10 Kd (nM) by replicate	mean, log10 nM
G26C/D30G/D107A	1.66, 1.33, 0.96	1.31
F27P/G104A/D107L	2.78, 3.20, 3.04	3.01
D30Q/S52T/D107W	3.51, 3.28, 3.78	3.52

Parent in this assay: reference entry 1.86, copy in this library 0.88.
Nonspecific signal, from three strains lacking the peptide, appeared in 21% of pairings of library AAYL51, centred on 4.54 (5% of these signals below 3.26); values are not corrected for it.

Reference: Engelhart et al. 2022, doi:10.1038/s41597-022-01779-4. File: FLAb, binding data.